Test results as given in US11576947B2, “Oral composition and method” (Kunming Lanchie Dental Hospital, LTD, priority 2019, dated 2023).

Legend:
[1] = Stability test in aqueous system (Brilliant Blue color dissipation); type: physicochemical; parameters: key: ++++: no color dissipation; +++: slightly dissipation; ++: obvious dissipation; +: totally dissipated; conditions: water, 2.76% carbamide peroxide, 0.002% Brilliant Blue; compound amount 1%; 60 days, room temperature
[2] = Stability test in propylene glycol (Brilliant Blue color dissipation); type: physicochemical; parameters: key: ++++: no color dissipation; +++: slightly dissipation; ++: obvious dissipation; +: totally dissipated; conditions: 2.76% carbamide peroxide, 0.002% Brilliant Blue, compound amount 1%, 60 days, room temperature
[3] = System stability evaluation: compatibility of ingredients with peroxide source and the system; conditions: summary of testing of Tables 2 and 3

| Substance | Color (color fading grade) [1] | Color (color fading grade) [2] | Effect on peroxide and system stability [3] |
| --- | --- | --- | --- |
| N-Cocoyl-L-glutamic acid monotriethanolamine [Amisoft CT-12S] | + | + | – |
| Natural calcium carbonate | – | – | activate the peroxide and make the system unstable |
